Molecules are shown by their SMILES. Like-named read-outs stand apart in the source and are kept apart here. A value given as a limit tells only on which side of the number the result lay.

Here are results for one compound from paper PMC5805504 (Oncotarget, 2017).

Experiment [1] has as its system pSMAD in Calu6 and EMT6-LM2 tumors. The experiment is described as follows: PK/PD profile from Calu6 and EMT6-LM2 in vivo target inhibition studies (statements not split by model). More on the design: species or system mice. As to conditions: from dose response analysis; Cmax target plasma concentration.
The subject of experiment [2] is NIH3T3 fibroblasts (TGFβ1 induced proliferation). As to conditions: read-out: IC50 (SE), NIH3T3 proliferation: TGF-β-stimulated.
Experiment [3] has the same test system. Description: cells. As to conditions: Mus musculus, NIH3T3, read-out: IC50 (SE), NIH3T3 proliferation: TGF-β-stimulated.
Experiment [4] has as its system Mv1Lu cells. Description: cells. As to conditions: read-out: IC50 (SE), Mv1Lu proliferation.
Experiment [5] has as its system NIH3T3 fibroblasts (PDGF stimulated proliferation). The experiment is described as follows: cells. As to conditions: Mus musculus, NIH3T3, read-out: IC50 (SE), NIH3T3 proliferation: PDGF-stimulated.
The test system of experiment [6] is pSMAD in Calu6 tumors. The experiment is described as follows: animal or person. As to conditions: Mus musculus, Calu-6, po, read-out: TEC50, total effective (plasma) concentration to inhibit 50% pSMAD.
The subject of experiment [7] is pSMAD in EMT6-LM2 tumors. The experiment is described as follows: animal or person. As to conditions: Mus musculus, po, read-out: TEC50, total effective (plasma) concentration to inhibit 50% pSMAD.
Experiment [8] has as its system NIH3T3 fibroblasts (bFGF stimulated proliferation). Description: cells. As to conditions: Mus musculus, NIH3T3, read-out: IC50 (SE), NIH3T3 proliferation: bFGF-stimulated.

Turning to `Cc1cccc(-c2nn3c(c2-c2ccnc4ccc(C(N)=O)cc24)CCC3)n1.O` [galunisertib, 4-[2-(6-methylpyridin-2-yl)-5,6-dihydro-4H-pyrrolo[1,2-b]pyrazol-3-yl]quinoline-6-carboxamide monohydrate], in experiment [1], the “estimated plasma concentration for maximal target inhibition in vivo” value was 3 to 6 µM. Further, the IC50 is 400 nM in experiment [2]; 396 nM in experiment [3]; 560 nM in experiment [4]; more than 20000 nM in experiment [5]; more than 20000 nM in experiment [8]. The EC50 in experiment [6] turned out to be 300 nM; in experiment [7], 340 nM.
